# Assay outcomes as filed in PubChem BioAssay.
# Wnt bcat act = Wnt/beta-catenin pathway activation | Wnt/beta-catenin reporter cell assay, activator, plate reader | activation, % at 9.35 µM | hit rate 1.2% among 300,000 | AID 743398; in the data active means activation above about 30%, passing the limit was not always enough
# Yeast UUG start-1 = modulators of yeast start codon fidelity, primary screen, whole organism, S. cerevisiae, single point, plate reader | AID 602363, 2012 | actives 0.13% (n = 350,000) | activity score, % at 18.7 µM | S. cerevisiae UUG-firefly luciferase reporter, luminescence/redox ratio;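 active means replicate mean at a twofold rise or more, about +100% in these data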;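 further: firefly luciferase made from a UUG start codon reports start codon fidelity; reporter light over untreated wells divided by growth signal over untreated wells; some hits fall short of that in this replicate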
# miR122 inh = inhibitors of miR-122 in Huh7 cells | activation (reporter increase), % at 12.5 µM | hit rate 0.3% among 340,000 | Huh7 miR-122 Renilla luciferase sensor, 48 h; neutral wells = 0, positive control = 100 | AID 602342;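 active means mean replicate activation score at least 90 and every replicate individually at or above 90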;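 further: higher luciferase means less miR-122 activity so hits act as miR-122 inhibitors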
# PglD inh = PglD (C. jejuni) enzyme inhibition; AID 602405; purified PglD enzyme, DTNB colorimetric CoA detection; inhibition, % at 12.5 µM; hit rate 0.098% among 360,000; in the data active means inhibition above about 16%, passing the limit was not always enough
# esBAF inh = blocks esBAF chromatin remodeling in mouse ES cells | Bmi1-luciferase knock-in reporter, 24 h; 100% = twice the neutral-well signal | reporter increase, % at 12.5 µM | hit rate 2% among 350,000 | AID 602393; in the data active means activation above about 40%;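 further: a rise in the Bmi1 reporter signal indicates esBAF inhibition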
# MITF TRPM1 HTS = activators of MITF-driven TRPM1 promoter activity in SK-MEL-5 cells | activation, % at 12.5 µM | hit rate 0.75% among 300,000 | AID 588334 | SK-MEL-5 TRPM1-promoter luciferase, 24 h; % of positive control, neutral wells = 0;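 active means mean activation of at least 80% with every replicate also reaching 80%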
# Yeast UUG start-2 = yeast start codon fidelity modulation. shares compounds with Yeast UUG start-1. S. cerevisiae UUG-start firefly luciferase, luminescence, 4 h; 100% means double the DMSO signal. activation, % at 38 µM. 540 tested, under 10 active. AID 652061;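 active means signal increase whose fitted curve reaches an absolute level of 40 at a concentration under 10 µM; inactive means activity opposite to the expected increase, or the rest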
# A number is an active result; - = inactive; . = no result; ! = not confirmed by another sample. The list is not random: actives were taken first. Their share in the collection is about 2.8%.
SMILES,Wnt bcat act,Yeast UUG start-1,miR122 inh,PglD inh,esBAF inh,MITF TRPM1 HTS,Yeast UUG start-2
CC1CCN(C(=O)Cn2cc(C#N)c3ccccc32)CC1,.,-,-,-,-,-,.
O=C(Cn1cc(C(=O)c2cccs2)c2ccccc21)NCC1CCCO1 (centres undefined),-,-,-,-,-,.,-
Cc1cc(SCC(=O)NCC2CCCO2)nc2ccccc12 (centres undefined),-,146,-,-,-,-,-
Cc1cc(SCC(=O)NC2CC2)nc2ccccc12,-,-,-,-,-,-,.
O=Cc1cn(CC(=O)NCC2CCCO2)c2ccccc12 (centres undefined),-,-,-,-,-,-,.
CCN(CC)C(=O)C(=O)c1cn(CC(=O)NCC2CCCO2)c2ccccc12 (centres undefined),-,.,.,.,.,-,.
O=C(Cn1cc(C(=O)C2CCCCC2)c2ccccc21)NCC1CCCO1 (centres undefined),-,-,-,.,-,-,-
O=C(NCc1ccccc1F)[C@H]1N[C@H]2c3ccc(-c4ccccc4F)c(=O)n3C[C@H]2[C@@H]1CO,.,.,-,-,-,.,.
CC1C/C(=C/c2ccncc2)C(=O)/C(=C/c2ccncc2)C1 (centres undefined),-,302,-,-,-,-,-
C[C@@H](NC(=O)C[C@@H]1CC[C@H](NC(=O)C2CCOCC2)[C@H](CO)O1)c1ccccc1,.,171,.,-,-,.,-
C[C@@H](NC(=O)C[C@@H]1CC[C@H](NC(=O)Nc2ccc3c(c2)OCO3)[C@@H](CO)O1)c1ccccc1,.,127,-,-,-,.,-
C[C@@H]1CN([C@H](C)CO)C(=O)Cc2cc(N(C)C)ccc2O[C@@H]1CN(C)S(=O)(=O)c1cn(C)cn1,.,-,-,-,-,.,.
C[C@@H]1CCCCO[C@@H](CN(C)C(=O)c2ccccc2)[C@H](C)CN([C@@H](C)CO)C(=O)c2cc(NS(=O)(=O)c3ccc(F)cc3)ccc2O1,.,-,-,-,-,.,.
C#CCOCCOCCOCCNc1nc(N2CCN(C(=O)[C@H](CC(N)=O)n3cc(C(N)[C@H](C)CC)nn3)CC2)nc(N2CCN(C(=O)[C@H](CC(N)=O)n3cc(C(N)[C@@H](C)CC)nn3)CC2)n1 (some centres undefined),-,108,-,-,-,-,-
C#CCOCCOCCOCCNc1nc(N2CCN(C(=O)[C@H](CC(N)=O)n3cc(C(N)[C@@H](C)CC)nn3)CC2)nc(N2CCN(C(=O)[C@H](CCCCN)n3cc([C@@H](N)CC(N)=O)nn3)CC2)n1 (some centres undefined),-,-,.,-,-,-,.
COc1ccc(-c2cn(CC(=O)N3CCN(C)CC3)nn2)cc1OC,.,148,.,-,.,.,-
COc1ccc(-c2nc(CSCC(=O)N3CCN(C)CC3)c(C)o2)cc1OC,-,-,-,-,-,-,.
COc1ccc(C(=O)c2cnc[nH]2)cc1OC,-,-,-,-,-,-,.
COc1ccc(C(=O)c2cnc[nH]2)cc1,-,171,-,-,.,.,-
COc1cccc(S(=O)(=O)N[C@H]2C=C[C@@H](CC(=O)NCc3ccc(Cl)cc3)O[C@H]2CO)c1,.,-,.,-,-,.,.
O=C(Nc1cnc2ccccc2c1)N1CCOCC1,.,105,-,-,.,-,-
O=C(Nc1ccc(O)cc1)N1CCOCC1,-,-,-,-,-,.,.
COCC(=O)Nc1ccc2c(c1)[C@@H]1C[C@H](CC(=O)NC3CCCCC3)O[C@H](CO)[C@@H]1O2,.,107,-,-,-,.,-
O=C(C[C@H]1C[C@@H]2c3cc(NC(=O)C4CCOCC4)ccc3O[C@@H]2[C@H](CO)O1)NC1CCCC1,.,102,-,-,-,.,-
O=C(C[C@@H]1C[C@H]2c3cc(NC(=O)C4CCC4)ccc3O[C@H]2[C@H](CO)O1)NCC1CC1,.,104,-,-,-,.,-
SMILES,Wnt bcat act,Yeast UUG start-1,miR122 inh,PglD inh,esBAF inh,MITF TRPM1 HTS,Yeast UUG start-2
O=C(C[C@@H]1C[C@H]2c3cc(NC(=O)C4CCOCC4)ccc3O[C@H]2[C@@H](CO)O1)NC1CCCC1,.,-,-,-,-,.,.
C[C@@H]1CCCCO[C@H](CN(C)C(=O)CCCN(C)C)[C@H](C)CN([C@H](C)CO)C(=O)c2cc(NS(C)(=O)=O)ccc2O1,.,.,-,.,-,.,.
O=C(C[C@@H]1CC[C@H]2[C@@H](COC[C@@H](O)CN2Cc2cccc(-c3ccncc3)c2)O1)N1CCOCC1,.,.,-,-,-,.,.
Cc1c(Cl)cccc1N1C(=O)CC(NNC(=O)c2cccs2)C1=O (centres undefined),-,647,-,-,-,-,-
Cc1c(Cl)cccc1N1C(=O)CC(NNC(=O)c2cccnc2)C1=O (centres undefined),-,-,-,-,.,-,.
C[C@H](CO)N1C[C@H](C)[C@H](CN(C)C(=O)c2ccc3c(c2)OCO3)Oc2ncc(C3=CCCCC3)cc2C1=O,.,-,-,-,-,.,.
COc1ccc(OCc2nnc(SCC(=O)NC3CC3)n2C)cc1,-,-,.,-,-,-,.
COc1ccc(C(=O)NCc2nnc(SCC(=O)NC3CCCCC3)n2C)cc1,-,349,-,-,-,-,-
O=C(NCCN1CCOCC1)C(=O)NCC1OCCCN1S(=O)(=O)c1cc(F)ccc1F (centres undefined),-,172,-,-,-,-,-
O=C(c1cccc(F)c1)N1CC[C@@H]2[C@H]1c1cc(-c3ccc(F)cc3)ccc1N[C@@H]2CO,.,-,-,-,-,.,.
COc1ccccc1-c1cnc2c(c1)C(=O)N([C@@H](C)CO)C[C@@H](C)[C@H](CN(C)C(=O)c1cccnc1)O2,-,200!,-,-,-,.,-
C[C@H](CO)N1C[C@H](C)[C@@H](CN(C)Cc2cncnc2)Oc2ncc(/C=C/c3ccccc3)cc2C1=O,.,250,-,-,-,.,-
C[C@@H]1CN([C@@H](C)CO)C(=O)c2cc(-c3cccnc3)cnc2O[C@H]1CN(C)C(=O)c1ccccc1F,.,166,-,-,-,.,-
COc1ccccc1-c1cnc2c(c1)C(=O)N([C@@H](C)CO)C[C@@H](C)[C@@H](CN(C)Cc1ccncc1)O2,.,137,-,-,-,.,-
CCNC(=O)C[C@H]1CC[C@@H]2[C@H](COC[C@H](O)CN2C(=O)Nc2ccc(Cl)c(Cl)c2)O1,.,-,-,-,-,.,.
CO[C@@H]1CN(C)C(=O)c2cc(NC(=O)c3cnccn3)ccc2OC[C@H](C)N(C(C)=O)C[C@H]1C,.,-,.,-,-,.,.
C[C@H](CO)N1C[C@H](C)[C@H](CN(C)Cc2ccncc2)Oc2ncc(-c3cccc(C#N)c3)cc2C1=O,.,110,-,-,-,.,-
COc1ccc(-c2cnc3c(c2)C(=O)N([C@@H](C)CO)C[C@@H](C)[C@H](CN(C)Cc2cccnc2)O3)cc1,.,145,-,-,-,.,-
